# Reference: paper PMC12280212
# The chains behind the UniProt entries cited, without tags or fusion partners. Where a name states a change or a piece, a line headed by the entry shows the natural chain unless it says otherwise.
# UniProt P31949: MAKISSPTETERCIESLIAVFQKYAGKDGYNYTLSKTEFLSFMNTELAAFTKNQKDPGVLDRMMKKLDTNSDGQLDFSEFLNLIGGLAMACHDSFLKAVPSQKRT
# UniProt P16070: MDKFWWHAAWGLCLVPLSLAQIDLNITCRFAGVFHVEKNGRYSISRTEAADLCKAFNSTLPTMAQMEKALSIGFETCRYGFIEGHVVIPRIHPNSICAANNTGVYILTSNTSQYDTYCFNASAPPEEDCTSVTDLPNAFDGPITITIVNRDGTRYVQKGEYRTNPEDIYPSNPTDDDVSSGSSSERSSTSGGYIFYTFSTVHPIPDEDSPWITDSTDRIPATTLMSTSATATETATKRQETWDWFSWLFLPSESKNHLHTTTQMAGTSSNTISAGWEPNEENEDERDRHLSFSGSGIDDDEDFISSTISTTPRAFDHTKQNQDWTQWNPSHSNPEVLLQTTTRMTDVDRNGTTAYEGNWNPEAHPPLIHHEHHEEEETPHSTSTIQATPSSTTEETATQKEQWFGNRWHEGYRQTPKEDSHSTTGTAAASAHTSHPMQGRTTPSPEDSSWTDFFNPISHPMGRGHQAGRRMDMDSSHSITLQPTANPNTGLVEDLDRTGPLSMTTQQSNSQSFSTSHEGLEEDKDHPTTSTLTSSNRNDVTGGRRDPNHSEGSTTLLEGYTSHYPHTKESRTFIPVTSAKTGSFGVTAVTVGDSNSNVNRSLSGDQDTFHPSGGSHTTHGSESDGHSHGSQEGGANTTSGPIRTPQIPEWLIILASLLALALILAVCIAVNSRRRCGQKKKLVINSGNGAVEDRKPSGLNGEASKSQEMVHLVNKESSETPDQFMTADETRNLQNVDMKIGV
# Key:
# Protein S100-A11 = Protein S100-A11 (UniProt P31949); test: cross-link between two proteins; cross-linking mass spectrometry
# CD44 antigen = CD44 antigen (UniProt P16070); test: cross-link between two proteins; affinity purification or IP with mass spectrometry; cross-linking mass spectrometry
substance,measurement,setting,value
"Annexin A2, P07355",listed as a hit,Protein S100-A11,yes
same,listed as a hit,CD44 antigen,yes
